Assays:
Mus musculus [1] = species on record: Mus musculus; experiment: Tested for effective dose required to produce antinociceptive activity in mice by HCl writhing method
Mus musculus [2] = species on record: Mus musculus; experiment: Tested for effective dose required to produce sedative activity in mice by inclined screen method
Mus musculus [3] = species on record: Mus musculus; experiment: Tested for effective dose required to produce antinociceptive activity in mice by tail flick method
Mus musculus [4] = species on record: Mus musculus; experiment: Tested for effective dose required to produce antinociceptive activity in mice by tail pinch method
Mus musculus [5] = species on record: Mus musculus; experiment: Tested for effective dose required to produce morphine antagonist activity in mice

SMILES	ED50 (Mus musculus [1]) [mg/kg]	ED50 (Mus musculus [2]) [mg/kg]	ED50 (Mus musculus [3]) [mg/kg]	ED50 (Mus musculus [4]) [mg/kg]	ED50 (Mus musculus [5]) [mg/kg]
CN(C(=O)Cc1ccc(Cl)c(Cl)c1)C1CCCCC1N1CCCC1 (configuration not stated)	2.5	71	2.5	2.5	> 100
CN(C)[C@@H]1CCCC[C@H]1N(C)C(=O)Cc1ccc(Cl)c(Cl)c1	–	> 100	–	–	> 100

Source: ChEMBL document CHEMBL1121943, “Benzeneacetamide amines: structurally novel non-m mu opioids” (1982)
